Results reported in article PMC9307851.

Biological target: Flag-tagged full-length DNMT3B (isoform 1), wild type, purified from QKO mESCs (human) (UniProt Q9UBC3)
Test: SEC; Flag-DNMT3B purified from QKO mESCs on anti-Flag M2 beads; Superose 6 Increase 10/300 GL; 25 mM HEPES pH 7.5, 400 mM NaCl, 5% glycerol, 5 mM DTT; fractions immunoblotted with anti-DNMT3B

stoichiometry N: 4
Substance: Flag-tagged full-length DNMT3B (isoform 1), wild type, purified from QKO mESCs (from UniProt Q9UBC3-1 1-853) (natural protein)
